This assay has as its target Tip60 (Homo sapiens, UniProt Q92993). The assay is described as follows: Steady-state kinetic characterization of Tip60 inhibition. It is filed as biochemical. The settings on record: Kis (slope inhibition constant).

Amino acid sequences for entries named in this document (tags omitted).
UniProt Q92993, whole entry: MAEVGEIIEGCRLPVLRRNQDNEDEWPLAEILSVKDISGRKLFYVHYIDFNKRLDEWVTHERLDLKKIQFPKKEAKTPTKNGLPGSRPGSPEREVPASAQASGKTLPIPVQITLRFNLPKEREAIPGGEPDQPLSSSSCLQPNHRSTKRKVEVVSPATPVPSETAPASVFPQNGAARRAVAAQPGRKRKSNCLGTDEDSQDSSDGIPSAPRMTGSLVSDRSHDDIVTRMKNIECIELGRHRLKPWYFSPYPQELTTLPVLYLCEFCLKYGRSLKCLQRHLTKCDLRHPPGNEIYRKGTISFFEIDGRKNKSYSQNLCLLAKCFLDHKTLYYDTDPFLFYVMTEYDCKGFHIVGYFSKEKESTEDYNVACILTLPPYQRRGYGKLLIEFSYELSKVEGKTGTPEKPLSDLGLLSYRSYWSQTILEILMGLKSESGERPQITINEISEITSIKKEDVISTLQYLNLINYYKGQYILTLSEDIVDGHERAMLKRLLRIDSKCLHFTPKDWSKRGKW

As a reminder, the Ki is the equilibrium dissociation constant of an inhibitor or competing ligand from its target. Lower therefore signals tighter binding. As to `CCCCCCCc1ccc(CCc2cccc(O)c2C(=O)O)cc1` [compound 20], the Ki is, setting by setting: (varied Ac-CoA, 50 nM Tip60, 100 µM H4-20) 54 µM; (varied H4-20, 25 nM Tip60, 2 µM Ac-CoA) above 660 µM.

The values are drawn from publication PMC3399519 (European Journal of Medicinal Chemistry, 2011).
